Measurements reported in ChEMBL document CHEMBL1151064, “Conformationally restricted 1,5-diarylpyrazoles are selective COX-2 inhibitors” (Bioorg Med Chem Lett, 1996).

Amino acid sequences for entries named in this document (tags omitted).
UniProt P23219, whole entry: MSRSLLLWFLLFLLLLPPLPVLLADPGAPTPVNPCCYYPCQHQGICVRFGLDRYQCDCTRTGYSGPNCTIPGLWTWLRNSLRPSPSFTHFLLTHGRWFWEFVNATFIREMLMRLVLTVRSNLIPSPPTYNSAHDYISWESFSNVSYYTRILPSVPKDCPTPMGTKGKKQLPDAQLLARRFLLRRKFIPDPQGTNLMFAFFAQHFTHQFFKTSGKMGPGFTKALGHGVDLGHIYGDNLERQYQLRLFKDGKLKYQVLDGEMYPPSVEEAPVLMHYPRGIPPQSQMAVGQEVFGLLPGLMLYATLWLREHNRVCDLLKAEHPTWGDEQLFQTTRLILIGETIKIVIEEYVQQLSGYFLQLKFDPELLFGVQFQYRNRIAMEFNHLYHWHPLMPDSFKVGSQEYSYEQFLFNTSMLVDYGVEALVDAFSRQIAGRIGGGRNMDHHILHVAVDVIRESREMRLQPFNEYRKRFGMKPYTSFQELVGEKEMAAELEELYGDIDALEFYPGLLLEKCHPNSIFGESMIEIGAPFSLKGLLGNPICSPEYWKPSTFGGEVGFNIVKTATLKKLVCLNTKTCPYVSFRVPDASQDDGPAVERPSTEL

Target: Prostaglandin G/H synthase 1 (Homo sapiens, UniProt P23219)
Test: Relative activity against COX-1/COX-2

Ratio: 12.4
Structure (SMILES): NS(=O)(=O)c1ccc(-n2nc(C(F)(F)F)c3c2-c2ccccc2CC3)cc1
